Drawing on patent publication US10098878B2, “HIF-2α inhibitors for treating iron overload disorders” (The Board of Regents of the University of Texas System, priority 2014, dated 2018), this text covers EC50 for one compound.

For this assay, the system named is 786-O-Hif-Luc cells. Kind of assay: Luciferase Assay. The settings on record: 24 h, read-out: Luciferase EC50. Format: cell-based.

The term EC50 denotes the concentration needed to bring the measured effect to its halfway point.

For `N#Cc1ccc(Oc2cc(F)cc(F)c2)c2c1[C@H](O)C(F)(F)C2` [Compound 4, (S)-7-(3,5-Difluorophenoxy)-2,2-difluoro-3-hydroxy-2,3-dihydro-1H-indene-4-carbonitrile], the EC50 is 0.074 µM.
